From patent US9706755B2, “Controlled odor mimic permeation system” (dated 2017)

Columns and labels:
[1] = tested on: explosives detection canines; assay: Follow-up testing of C-4 mimic aids (Table 96); conditions: four canines
[2] = tested on: explosives detection canines; assay: First field test of gauze mimic aids, COMPS kits (Table 94); conditions: 10.0 mg on cotton gauze in LDPE; dogs 140 & 141 excluded
[3] = tested on: previously trained explosives detection canines; assay: Field testing of the first double bag training aid design (Table 90); conditions: for dogs alerting: 10 mg on gauze in 2.0 mil LDPE
[4] = tested on: trained and certified explosives detection canines; assay: Canine field trials, active odor determination (odor line-up of hide boxes)
[5] = tested on: explosives detection canines; assay: Overall / individual canine performance (alerts plus interests over all hides; real explosives, odor chemicals, NESTT silica and petrolatum aids; Tables 69-72)
[6] = cited from earlier work
[7] = Permeation of odor compounds through 2.0 mil LDPE bags (gravimetric); conditions: gradient of mass loss over time
[8] = Permeation of odor compounds through different polymer chemistries (gravimetric); conditions: 25.0 mg on gauze; LDPE 1.5-4.0 mil, polypropylene, cellophane, Kapak; 1 month
[9] = 100 μl at 100.00 ppm on Gauze in 2.5 mil Al Kapak, in Electrical Box, ten dogs
[10] = aid removed from the outer packaging
[11] = Table 58, 0.5 μl in 2.0 mil LDPE
[12] = Table 59, 10.0 μl in 2.0 mil LDPE
[13] = Table 60, 25 μl in 2.0 mil LDPE
[14] = canines 108, 109 and 118, most experienced teams
[15] = six of dogs 121-129, imprinted on RDX, tested after first exposure to C-4

SMILES: CCCCC(CC)CO (centres unmarked)
- Interest (dog numbers) ([1]; 10 μl on Gauze in 2 mil LDPE, Electrical Box): 118
- interests (canines showing interest / canines tested) ([1]; Table 96, 10 μl): 1/4
- interest [2]: 33%
- positive response [2]: 50%
- % Alert ([3]; 100 μl at 100.00 ppm on Gauze in 2.0 mil LDPE, in Electrical Box, ten dogs): 70%
- % Alert [3, 9]: 10%
- Alert (dog numbers) [3, 9]: 116
- dogs giving interest without alert [3, 10]: three dogs
- dogs alerting [3, 10]: seven out of ten
- dogs alerting ([3]; aid still in the aluminised Kapak outer bag): one in ten
- alerts (canines alerting / canines tested) ([4]; Table 57, 5.0 mg): 8/9
- interests (canines showing interest / canines tested) ([4]; Table 57, 5.0 mg): 1/9
- % Alert ([4]; Table 57, Quart Can, 50 μl at 10% w/v Acetonitrile on Cotton in Open Vial, 9 canines): 88.9%
- alerts (canines alerting / canines tested) [4, 11]: 2/10
- interests (canines showing interest / canines tested) [4, 11]: 0/2
- alerts (canines alerting / canines tested) [4, 12]: 7/10
- interests (canines showing interest / canines tested) [4, 12]: 3/10
- alerts (canines alerting / canines tested) [4, 13]: 2/12
- interests (canines showing interest / canines tested) [4, 13]: 5/12
- % Alert ([4]; Table 61, 100 ng (100 μl at 1 ppm Acetonitrile) on Cotton): 6.7%
- % Alert ([4]; Table 61, 1 ug (100 μl at 10 ppm Acetonitrile) on Cotton): 6.7%
- % Alert ([4]; Table 61, 10 ug (100 μl at 100 ppm Acetonitrile) on Cotton): 6.7%
- % Alert ([4]; Table 61, 100 ug (100 μl at 1000 ppm Acetonitrile) on Cotton): 13.3%
- % Alert ([4]; Table 61, 1 mg (100 μl at 10,000 ppm Acetonitrile) on Cotton): 13.3%
- % Alert ([4]; Table 61, 10 mg (100 μl at 100,000 ppm Acetonitrile) on Cotton): 33.3%
- amount to which most dogs alerted ([4]; Table 61 detection level study): 1 to 10 mg
- lowest amount to which one dog gave an alert ([4]; Table 61 detection level study): 10 ng
- overall canine population response to odor chemical (alert/interest) ([5]; Table 70, all field tests pooled, canines 120, 140, 141 discounted): 74.4%
- combined result [5, 14]: 86.7%
- combined result (responses / hides) [5, 14]: 13/15
- alerts (canines alerting / canines tested) [5, 15]: 2/6
- interests (canines showing interest / canines tested) [5, 15]: 2/6

SMILES: CC(C)([N+](=O)[O-])C(C)(C)[N+](=O)[O-]
- Vapour Pressure at 25° C. [6]: 2.1 × 10^−3 torr
- permeation rate through LDPE [7]: 1030 pg/s
- permeation through different polymers (qualitative) [8]: no discernable difference between the rate of loss from the different polymers
